These results are taken from ChEMBL document CHEMBL6074662, “Antibacterial, Antibiofilm, and Anti-inflammatory Effects of a Novel Thrombin-Derived Peptide in Sepsis Models: Insights into Underlying Mechanisms” (J Med Chem, 2024).

Converted amounts (≈) assume the structure as drawn.

In experiment [1] the test system is Staphylococcus aureus. Nature of the experiment: Antibacterial activity against Staphylococcus aureus KCTC 1621 incubated for 24 hrs by CLSI based broth microdilution method. The format is functional. For orientation: Broth dilution looks for growth in wells or tubes with falling amounts of substance.
The subject of experiment [2] is Staphylococcus epidermidis. Nature of the experiment: Antibacterial activity against Staphylococcus epidermidis KCTC 1917 incubated for 24 hrs by CLSI based broth microdilution method. The class given is functional.
A further experiment deals with Escherichia coli. Nature of the experiment: Antibacterial activity against Escherichia coli KCTC 1682 incubated for 24 hrs by CLSI based broth microdilution method. The format is functional.
Experiment [3] relates to Pseudomonas aeruginosa. Kind of experiment: Antibacterial activity against Pseudomonas aeruginosa KCTC 1637 incubated for 24 hrs by CLSI based broth microdilution method. The class given is functional.
Experiment [4] deals with Pseudomonas aeruginosa. Kind of experiment: Antibacterial activity against multidrug-resistant Pseudomonas aeruginosa CCARM 2109 incubated for 24 hrs by CLSI based broth microdilution method. The format is functional.
The test system of experiment [5] is Pseudomonas aeruginosa. Nature of the experiment: Antibacterial activity against multidrug-resistant Pseudomonas aeruginosa CCARM 2095 incubated for 24 hrs by CLSI based broth microdilution method. The class given is functional.
The subject of another experiment is Bacillus subtilis. Nature of the experiment: Antibacterial activity against Bacillus subtilis KCTC 3068 incubated for 24 hrs by CLSI based broth microdilution method. The class given is functional.
The subject of experiment [6] is Staphylococcus aureus. Nature of the experiment: Antibacterial activity against methicillin-resistant Staphylococcus aureus CCARM 3095 incubated for 24 hrs by CLSI based broth microdilution method. The class given is functional.
For a further experiment, the system named is Salmonella typhimurium. Nature of the experiment: Antibacterial activity against Salmonella typhimurium KCTC 1926 incubated for 24 hrs by CLSI based broth microdilution method. The format is functional, Salmonella enterica subsp. enterica serovar Typhimurium. The settings on record: Salmonella enterica.
The test system of experiment [7] is Staphylococcus aureus. Nature of the experiment: Antibacterial activity against methicillin-resistant Staphylococcus aureus CCARM 3090 incubated for 24 hrs by CLSI based broth microdilution method. The class given is functional.
Experiment [8] concerns Staphylococcus aureus. Kind of experiment: Antibacterial activity against methicillin-resistant Staphylococcus aureus CCARM 3089 incubated for 24 hrs by CLSI based broth microdilution method. The format is functional.

By MIC is commonly meant the smallest concentration in the dilution series that meets the test's criterion for growth inhibition. High values mean weaker potency, low ones greater potency.

As to `CC[C@H](C)[C@H](NC(=O)CN)C(=O)NCC(=O)N[C@@H](C)C(=O)N[C@H](C(=O)N[C@@H](CC(C)C)C(=O)N[C@@H](CCCCN)C(=O)N[C@H](C(=O)N[C@@H](CC(C)C)C(=O)N[C@H](C(=O)N[C@H](C(=O)NCC(=O)N[C@@H](CC(C)C)C(=O)N1CCC[C@H]1C(=O)N[C@@H](C)C(=O)N[C@@H](CC(C)C)C(=O)N[C@H](C(=O)N[C@@H](CO)C(=O)N[C@@H](Cc1c[nH]c2ccccc12)C(=O)N[C@H](C(=O)N[C@@H](CCCCN)C(=O)N[C@@H](CCCNC(=N)N)C(=O)N[C@@H](CCCCN)C(=O)N[C@@H](CCCNC(=N)N)C(=O)N[C@@H](CCC(N)=O)C(=O)N[C@@H](CCC(N)=O)C(N)=O)[C@@H](C)CC)[C@@H](C)CC)[C@@H](C)O)[C@@H](C)O)C(C)C)C(C)C` [MELITTIN], the MIC in the experiment on Staphylococcus aureus [1] amounted to 2 µM (≈ 5.69 µg/mL); in experiment [2], 4 µM (≈ 11.4 µg/mL); against Escherichia coli it was 4 µM (≈ 11.4 µg/mL); in the experiment with Pseudomonas aeruginosa [3], 16 µM (≈ 45.5 µg/mL); against Pseudomonas aeruginosa [4], 16 µM (≈ 45.5 µg/mL); in the experiment with Pseudomonas aeruginosa [5], 2 µM (≈ 5.69 µg/mL). The minimum inhibitory concentration (MIC) with Bacillus subtilis stood at 2 µM (≈ 5.69 µg/mL); in the experiment with Staphylococcus aureus [6], 4 µM (≈ 11.4 µg/mL); with Salmonella typhimurium it was 8 µM (≈ 22.8 µg/mL); in the experiment on Staphylococcus aureus [7] it was 4 µM (≈ 11.4 µg/mL); in the experiment on Staphylococcus aureus [8], 4 µM (≈ 11.4 µg/mL).
